Measured values: patent US8507219B2, “Method of treating inflammation with statins” (MUSC Foundation for Research Development, priority 1997, dated 2013)

Test system: cultured skin fibroblasts of X-ALD
Experiment: VLCFA ratios (C26:0/C22:0, C24:0/C22:0) in X-ALD skin fibroblasts
Assay type: cell-based, human
Conditions: about 15 days of treatment

B1: interferon-β: interferon-β, indicated as a possible therapy for X-ALD (protein, UniProt P01574 22-187, looked up)
Interferon beta: MSYNLLGFLQRSSNFQCQKLLWQLNGRLEYCLKDRMNFDIPEEIKQLQQFQKEDAALTIYEMLQNIFAIFRQDSSSTGWNETIVENLLANVYHQINHLKTVLEEKLEKEDFTRGKLMSSLHLKRYYGRILHYLKAKEYSHCAWTIVRVEILRNFYFINRLTGYLRN
  ratios of C26:0/C22:0 and C24:0/C22:0 / level of VLCFA: ineffective in lowering the ratios of C26:0/C22:0 and C24:0/C22:0
